Here are results for one substance from patent US20250353928A1.

pKd: −log10 of the molar value.

This experiment addresses human IgE (SUS-11) (human) (UniProt P01854). The experiment in a line: SPR (Biacore 8K), human IgE (SUS-11) captured via anti-IgE Le27, Fab as analyte, 1:1 fit. In general terms: Surface plasmon resonance follows binding to a sensor surface in real time, without labels.

A word on the pKd: it is the Kd on a negative log10 scale, so that one unit is a factor of ten. Read a low pKd as a large Kd. As for Omalizumab Fab, the pKd was 8.30.
